From patent US6812231B2, “Benzamidine derivative” (Ajinomoto Co., Inc., priority 1998, dated 2004)

What was measured:
[1] = target: T1, activated human blood coagulation factor X (Homo sapiens, UniProt P00742); assay: Determination of activity of inhibiting the activated blood-coagulation factor X (chromogenic substrate, initial rate); assay type: biochemical; settings: tris hydrochloride buffer pH 8.4, room temperature, absorbance 405 nm
T1 construct: purchased Enzyme Research Co
Protocol: Determination of Activity of Inhibiting the Activated Blood-coagulation Factor X
130 μl of 100 mM tris hydrochloride buffer adjusted to pH 8.4 was added to 10 μl of an aqueous solution of a compound to be tested. Then 10 μl of a 0.5 unit/ml solution of activated human blood coagulation factor X (a product of Enzyme Research Co.) in tris hydrochloride of pH 8.4 was added to the resultant mixture. After the incubation at room temperature for 10 minutes, 50 μl of a solution of N-benzoyl-L-isoleucyl-L-glutamyl-glycyl-L-arginyl-P-nitroanilide hydrochloride (a product of Peptide Institute, Inc.) adjusted to 0.8 mM with tris hydrochloride (pH 8.4) was added thereto. The absorbance was determined and then the initial reaction rate was determined. A control was prepared in the same manner as that described above except that the solution of the compound to be tested was replaced with 10 μl of tris hydrochloride buffer adjusted to pH 8.4. The absorbance was determined with MICROPLATE READER Model 3550-UV (a product of BIO RAD) at a wave length of 405 nm at intervals of 15 seconds for 16 minutes. […]

human thrombin = target: T2, human thrombin (Homo sapiens, UniProt P00734); assay: Determination of thrombin-inhibiting activity (chromogenic substrate S-2238, initial rate); assay type: biochemical; settings: tris hydrochloride buffer pH 8.4, room temperature, absorbance 405 nm
T2 construct: solution of human thrombin (a product of SIGMA Co.); purchased SIGMA Co
Protocol: Determination of Thrombin-inhibiting Activity
130 μl of 100 mM tris hydrochloride buffer adjusted to pH 8.4 was added to 10 μl of an aqueous solution of a test compound. Then 10 μl of a solution of human thrombin (a product of SIGMA Co.) adjusted to 2 units/ml with tris hydrochloride buffer of pH 8.4 was added to the resultant mixture. After the incubation at room temperature for 10 minutes, 50 μl of a solution of D-phenylalanyl-L-pipecolyl-L-arginyl-P-nitroanilide dihydrochloride (S-2238; a product of Daiichi Kagaku Yakuhin Co.) adjusted to 0.4 mM with tris hydrochloride buffer of pH 8.4 was added thereto. The absorbance was determined and then the initial reaction rate was determined. A control was prepared in the same manner as that described above except that the solution of the compound to be tested was replaced with 10 μl of tris hydrochloride buffer adjusted to pH 8.4. The absorbance was determined with MICROPLATE READER Model 3550-UV (a product of […]) at a wave length of 405 nm at intervals of 15 seconds for 16 minutes. The negative logarithm (pIC50) of a concentration of the test compound which inhibits 50% of the activity (initial rate) of the thrombin in the absence of the test compound was determined, and employed as the index of the activity of inhibiting thrombin.

## 2-[4-amidino-2-[2-[(1-(1-pyridine-4-yl)piperidine-4-carbonyl) amino]ethoxy]phenyl]ethanesulfonic acid bistrifluoroacetate [Compd. of Ex. 42]
[1]
  Activity of inhibiting activated blood coagulation factor X (pIC50): 7.2
Human thrombin
  Thrombin-inhibiting activity (pIC50): <3.3
